Here are results for 5 compounds from article PMC5700161, “Structure of human immunoproteasome with a reversible and noncompetitive inhibitor that selectively inhibits activated lymphocytes” (Nature Communications, 2017).

Each structure is given as a SMILES string. Where two headings read alike, the source gives them in different places.

The target of one assay is β2c (Homo sapiens, UniProt Q99436). Put plainly: IC50 against β2c of human constitutive proteasome (Z-VLR-AMC). The following applies: read-out: IC50 2c - VLR (β2c), substrate Z-VLR-AMC.
Another assay addresses β1i (Homo sapiens, UniProt P28065). Put plainly: IC50 against β1i of human immunoproteasome (Ac-PAL-AMC). The following applies: read-out: IC50 1i - PAL (β1i), substrate Ac-PAL-AMC.
The target of the next assay is β1c (Homo sapiens, UniProt P28072). The assay can be described thus: IC50 against β1c of human constitutive proteasome (Z-LLE-AMC). The following applies: read-out: IC50 1c - LLE (β1c), substrate Z-LLE-AMC.
A further assay addresses β2i (Homo sapiens, UniProt P40306). Put plainly: IC50 against β2i of human immunoproteasome (Z-VLR-AMC). The note with it: read-out: IC50 2i - VLR (β2i), substrate Z-VLR-AMC.
A further assay has as its target human β5c (Homo sapiens, UniProt P20618+P28074). Put plainly: IC50 determination against human β5c of c-20S.
The target in the next assay is human β5i (Homo sapiens, UniProt P20618+P28062). The assay can be described thus: IC50 determination against human β5i of i-20S.

`CC(C)(C)NC(=O)C[C@H](NC(=O)CCc1ccccc1)C(=O)NCCCNC(=O)c1cccc(-c2ccccc2)c1`: the IC50 at β2c, on β1i, at β1c and at β2i was greater than 50 µM in each case.
Consider `CC(C)(C)OC(=O)NCC(=O)NCCNC(=O)c1cc(-c2ccccc2F)ccc1F`, for which the IC50 at β2c, at β1i, at β1c and at β2i was greater than 50 µM throughout. For the same compound, the “inhibitory activity against β5c (in words)” value on human β5c is “abolished the inhibitory activities”. Besides, at human β5i, the “inhibitory activity against β5i (in words)” value is recorded as “abolished the inhibitory activities”.
Regarding `CC(C)(C)NC(=O)C[C@H](N)C(=O)NCCNC(=O)c1cc(-c2ccccc2F)ccc1F`, the IC50 on β2c (tested form: TFA), on β1i (tested form: TFA), on β1c (tested form: TFA) and on β2i (tested form: TFA) was greater than 50 µM throughout.
As to `C[C@H](NC(=O)OC(C)(C)C)C(=O)NCCNC(=O)c1cc(-c2ccccc2F)ccc1F`, the IC50 at β2c, at β1i, on β1c and on β2i was greater than 50 µM in each case. Also, on human β5c, the “inhibitory activity against β5c (in words)” value is given as “abolished the inhibitory activities”. In addition, the “inhibitory activity against β5i (in words)” value against human β5i was “abolished the inhibitory activities”.
Take `Cc1cc(C(=O)N[C@@H](CC(=O)NC(C)(C)C)C(=O)NCCNC(=O)c2cc(-c3ccccc3F)ccc2F)no1`: the 50% inhibitory concentration (IC50) on β2c, at β1i, on β1c and at β2i was greater than 50 µM each time.
